# Data published in patent publication US12247064B2, “Modified ligand-gated ion channels and methods of use” (Howard Hughes Medical Institute, priority 2017, dated 2025).
# The chains behind the UniProt entries cited, without tags or fusion partners. A line that says so, or that is headed by a name, gives the form on record, which may keep a tag or linker.
# UniProt P36544, with tags, fused parts or gaps: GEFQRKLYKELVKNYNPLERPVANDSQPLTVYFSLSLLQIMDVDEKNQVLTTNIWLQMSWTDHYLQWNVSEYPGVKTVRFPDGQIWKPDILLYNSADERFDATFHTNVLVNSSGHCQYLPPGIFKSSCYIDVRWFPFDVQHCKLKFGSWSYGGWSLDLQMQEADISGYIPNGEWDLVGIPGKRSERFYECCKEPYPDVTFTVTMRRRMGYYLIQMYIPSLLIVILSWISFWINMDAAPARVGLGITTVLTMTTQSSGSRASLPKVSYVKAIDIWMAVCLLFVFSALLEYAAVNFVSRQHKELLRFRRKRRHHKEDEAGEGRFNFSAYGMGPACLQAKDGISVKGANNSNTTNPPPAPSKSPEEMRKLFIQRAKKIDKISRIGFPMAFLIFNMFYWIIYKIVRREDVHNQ
# UniProt P36544, with tags, fused parts or gaps L131N: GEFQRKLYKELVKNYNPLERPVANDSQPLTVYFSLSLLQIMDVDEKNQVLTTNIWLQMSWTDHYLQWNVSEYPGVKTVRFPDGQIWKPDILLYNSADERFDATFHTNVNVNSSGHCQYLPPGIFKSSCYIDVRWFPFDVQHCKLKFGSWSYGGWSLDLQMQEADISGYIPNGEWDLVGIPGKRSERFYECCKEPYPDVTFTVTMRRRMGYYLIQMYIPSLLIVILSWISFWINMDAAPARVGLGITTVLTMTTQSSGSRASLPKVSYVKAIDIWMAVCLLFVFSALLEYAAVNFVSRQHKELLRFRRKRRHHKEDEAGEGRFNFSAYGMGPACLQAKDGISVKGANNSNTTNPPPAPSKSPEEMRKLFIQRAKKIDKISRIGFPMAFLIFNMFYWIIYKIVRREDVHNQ
# UniProt P36544, with tags, fused parts or gaps L131M limits assumed: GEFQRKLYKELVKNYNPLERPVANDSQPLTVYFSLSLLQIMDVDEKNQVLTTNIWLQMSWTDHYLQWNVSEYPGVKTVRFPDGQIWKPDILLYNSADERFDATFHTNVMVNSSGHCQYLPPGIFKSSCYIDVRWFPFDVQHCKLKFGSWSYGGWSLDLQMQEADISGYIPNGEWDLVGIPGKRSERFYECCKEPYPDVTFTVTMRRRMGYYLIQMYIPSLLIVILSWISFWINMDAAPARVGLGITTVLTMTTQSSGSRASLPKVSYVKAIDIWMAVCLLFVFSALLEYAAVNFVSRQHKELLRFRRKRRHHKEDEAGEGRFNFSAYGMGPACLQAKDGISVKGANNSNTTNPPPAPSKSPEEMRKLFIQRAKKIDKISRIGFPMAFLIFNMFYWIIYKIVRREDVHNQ
# UniProt P36544, with tags, fused parts or gaps L131F: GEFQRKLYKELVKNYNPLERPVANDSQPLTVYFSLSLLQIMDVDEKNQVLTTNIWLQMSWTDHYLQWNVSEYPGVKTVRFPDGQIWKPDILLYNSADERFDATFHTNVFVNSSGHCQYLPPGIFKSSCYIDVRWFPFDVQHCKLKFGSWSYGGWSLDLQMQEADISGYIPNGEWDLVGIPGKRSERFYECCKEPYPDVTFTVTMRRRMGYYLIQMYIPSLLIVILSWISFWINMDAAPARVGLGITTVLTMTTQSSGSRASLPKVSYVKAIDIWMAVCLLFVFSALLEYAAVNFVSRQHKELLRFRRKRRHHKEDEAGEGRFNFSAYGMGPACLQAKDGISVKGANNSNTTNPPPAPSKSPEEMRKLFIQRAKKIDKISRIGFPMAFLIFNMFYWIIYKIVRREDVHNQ
# UniProt P36544, with tags, fused parts or gaps L131Q limits assumed: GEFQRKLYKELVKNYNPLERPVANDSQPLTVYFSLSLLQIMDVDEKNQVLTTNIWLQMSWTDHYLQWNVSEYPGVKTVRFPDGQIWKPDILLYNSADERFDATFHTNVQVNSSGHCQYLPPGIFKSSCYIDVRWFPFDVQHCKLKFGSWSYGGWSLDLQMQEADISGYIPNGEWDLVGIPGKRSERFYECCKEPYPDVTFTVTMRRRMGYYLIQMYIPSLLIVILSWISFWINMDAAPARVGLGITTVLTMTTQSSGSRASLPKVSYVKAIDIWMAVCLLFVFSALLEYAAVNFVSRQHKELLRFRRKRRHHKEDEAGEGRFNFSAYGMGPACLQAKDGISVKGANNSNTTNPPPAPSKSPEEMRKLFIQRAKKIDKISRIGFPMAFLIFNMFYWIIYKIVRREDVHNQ
# Key:
# [1] = biological target: α7-GlyR (Homo sapiens, UniProt P36544); test: cell-based
# [2] = biological target: T1, α7^L131N-GlyR (Homo sapiens, UniProt P36544, L131N); assay type: cell-based
# T1 construct: expressed in transfected cells
# [3] = biological target: T2, α7^L131M-GlyR (Homo sapiens, UniProt P36544, L131M); assay type: cell-based
# T2 construct: expressed in transfected cells
# [4] = biological target: T3, α7^L131F-GlyR (Homo sapiens, UniProt P36544, L131F); assay type: cell-based
# T3 construct: expressed in transfected cells
# [5] = biological target: T4, α7^L131Q-GlyR (Homo sapiens, UniProt P36544, L131Q); assay type: cell-based
# T4 construct: expressed in transfected cells
Compound,pEC50 [1],pEC50 [2],pEC50 [3],pEC50 [4],pEC50 [5]
c1ccc(-c2cnc3cc4c(cc3n2)C2CNCC4C2)cc1 (stereo not drawn) [compound 765],< 4.00,< 5.00,,,
Cc1nc2cc3c(cc2nc1-c1ccccc1)C1CNCC3C1 (stereo not drawn) [compound 770],,< 5.00,7.52,7.47,< 6.52

# pEC50: −log10 of the molar value.
